Antibody variant affinities, Ab-14 light chain, assay B

Data: MIT Lincoln Laboratory AlphaSeq set, Li et al. 2023, doi:10.1038/s41467-023-39022-2, as distributed in FLAb.

Antigen: PDVDLGDISGINAS, a 14-residue peptide of the SARS-CoV-2 spike HR2 region.

The variants keep the heavy chain, the linker and the frameworks of Ab-14 (scFv order VH, a (GGGGS)3 linker, VL).
VH: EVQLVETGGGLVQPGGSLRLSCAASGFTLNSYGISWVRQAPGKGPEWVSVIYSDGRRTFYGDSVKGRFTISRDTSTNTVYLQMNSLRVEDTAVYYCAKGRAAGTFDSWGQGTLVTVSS
VL: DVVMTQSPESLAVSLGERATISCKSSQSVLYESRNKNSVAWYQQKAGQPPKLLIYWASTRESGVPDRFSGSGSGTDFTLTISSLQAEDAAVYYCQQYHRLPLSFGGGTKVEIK

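The parent was found by panning a naive human phage display library on the peptide. This is the validation round: designs drawn from the data on random variants, tested in the same kind of assay. Group labels follow the data file (Ctrl: baseline library sampled from a position-specific scoring matrix, with some repeated check sequences; Rand: our label for a block that the file lists under HC and that is probably the random mutants of the ten best first-round binders; En: ensemble of fine-tuned language models; GP: Gaussian process model; HC: hill climbing; Gen: genetic algorithm; Gibbs: Gibbs sampling; a sequence that several methods proposed may carry one label only). Affinity was read by AlphaSeq, a pooled yeast mating assay with surface-displayed partners. Mating (16 h, 30 °C) was followed by selection of diploids and sequencing of their barcodes. The ratio of observed to expected reads was calibrated, replicate by replicate, on BCL2-family standards whose Kd was known from biolayer interferometry. Each pool was mated in six replicate cultures.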

The parent's light chain CDRs are KSSQSVLYESRNKNSVA, WASTRES, QQYHRLPLS; each variant's own CDRs replace them letter for letter.
Numbers give log10(Kd / nM), so 0 is 1 nM and 3 is 1 µM. Smaller is tighter.
The mean shown is taken over the replicates in which the pair was detected.
A pair that was not seen in any replicate is written "no signal"; this usually means weak binding, but a binder can also be missed.
Entries are sorted by rising average, undetected variants last.

KLSQSVLYESRNKNNVA / NASTRED / QQYHRLPLS [GP_Gen]: -0.65 (6 of 6 replicates).
KLEQSTLYESRNANSVA / NASTRES / QQYKRLPLS [GP_Gibbs]: -0.28 (6 of 6 replicates).
KMSQSVLYESRNKNSVA / NASTREM / QQYHRLPLS [GP_Gen]: -0.14 (6 of 6 replicates).
YISQSVLYESRNKNSVA / NASTRES / QQYHRLPLS [GP_Gen]: -0.13 (6 of 6 replicates).
KLSQSTNYLSRVMNSVA / DNSTRES / QQYFRLPLS [En_HC]: -0.12 (6 of 6 replicates).
HSSPSVLYESRNKNSVA / NASTREE / QDYHRLPLS [GP_HC]: -0.08 (6 of 6 replicates).
KLQQSNLYESRNKNSVA / NASQRLS / QQYHRLPLS [GP_Gen]: -0.07 (6 of 6 replicates).
KLSQSDLYESRNKNSVA / NASTREM / QQYHRLPLS [GP_Gen]: -0.04 (6 of 6 replicates).
KLQQSVLYESRNKNSVA / GASQRLS / QQYHRLPLS [GP_Gen]: 0.01 (6 of 6 replicates).
KQSQSDGGEQRNKNSVA / EASTRCM / QQYHRLPLS [GP_Gibbs]: 0.08 (6 of 6 replicates).
KLSMMVDYHSATHSSVA / QTSTREE / QQYHRLPLS [En_HC]: 0.16 (6 of 6 replicates).
KWSQSVLYESRNKNSVA / QASTRES / QQYHRNPLS [Ctrl]: 0.22 (6 of 6 replicates).
KCSQSDLYESRNKNSVA / EASTRES / QQYHRLPLS [GP_Gen]: 0.22 (6 of 6 replicates).
KISQATNYLSRVMNSVA / DNSTRGS / QQYFRLPLS [En_HC]: 0.26 (6 of 6 replicates).
TISQLMLYESRNKNNVA / GTSTRES / QCYMRLPLS [En_HC]: 0.30 (6 of 6 replicates).
TISGIMNSQSHVKNNVA / EMSTREK / QQYVRLPLA [En_Gen]: 0.35 (6 of 6 replicates).
KLNQSVGYEQRNKNSVA / EASTRED / QQYHRLPLS [GP_Gibbs]: 0.41 (6 of 6 replicates).
KSSQSVLYESRNKNSVA / DASTRES / QQYHILPLS [Ctrl]: 0.46 (6 of 6 replicates).
KVQMSWLMSSRNKNQVA / HASMRES / QQYHRLPLS [GP_Gibbs]: 0.50 (6 of 6 replicates).
KFSQSVLYESRNKNSVA / EASTREM / QQYHRLPLS [GP_Gen]: 0.68 (6 of 6 replicates).
KSSWSYLYESGNKNSVA / HASTRED / QQYHRLPLS [GP_HC]: 0.69 (6 of 6 replicates).
KLSMVTGHLSVEKNNVA / EMETREN / QQYDRLPLS [En_Gen]: 0.77 (6 of 6 replicates).
KSSQSTLYESANKNSVA / WGSTRES / QQYHRLPLS [Ctrl]: 0.86 (6 of 6 replicates).
TLMFDGEYSDKENYAIA / DAIHTQV / QQYVRLPLS [En_Gibbs]: 0.92 (6 of 6 replicates).
NFSQMVLTGQTLKNSVA / HASTREE / QQYHRLPLI [En_HC]: 0.98 (6 of 6 replicates).
TLDNHQAGYYQKNNNIA / EMNMRRY / QQYGRLPLS [En_Gibbs]: 1.12 (6 of 6 replicates).
KSSQSVLMESLNKNSVA / HASQRIW / QQYHRLPLS [GP_Gibbs]: 1.16 (6 of 6 replicates).
KSSQSVLYESRNKNSVA / QASTRES / QQPHRLPLS [Ctrl]: 1.16 (6 of 6 replicates).
QIGMLLNFESKVGNNVA / QMETRVN / QQYHHLPLS [En_Gen]: 1.48 (5 of 6 replicates).
KISQNMGETQRNKHSVA / EVSLVPA / QQYWRLPLS [En_HC]: 1.56 (4 of 6 replicates).
RITILSDYYNENRNAIA / ETSLKAH / QQYQMLPLT [En_Gibbs]: 1.60 (3 of 6 replicates).
ASSQSVLYESRNKNSVA / WASTRVS / QQYHRLPLS [Ctrl]: 1.61 (3 of 6 replicates).
KLQWSVLDEERNDNSVA / WASHRES / QQYHRLPLS [GP_Gibbs]: 1.98 (6 of 6 replicates).
MVNTNLEHQAQRDNSIA / EADMVAA / QDYDRLPLI [En_Gibbs]: 2.25 (5 of 6 replicates).
TLYGLSNSMSINKNSVA / EMTTREK / QQYDRLPLE [En_Gen]: no signal (0 of 6 replicates).
KFSQSVAYESRTKNSVA / NNSTRES / QQAHRLPLS [Rand]: no signal (0 of 6 replicates).
MISQILNMGQFAINSVA / QASLRCN / QQYDRLPLA [En_Gen]: no signal (0 of 6 replicates).
KFSASLYRSGSEASSVA / EAEEVRQ / QHYNRLPLG [En_Gibbs]: no signal (0 of 6 replicates).

Repeated from above, the 4 best binders with a signal in all replicates:

CDR-L1	CDR-L2	CDR-L3	group	mean, log10 nM	replicates with signal
KLSQSVLYESRNKNNVA	NASTRED	QQYHRLPLS	GP_Gen	-0.65	6/6
KLEQSTLYESRNANSVA	NASTRES	QQYKRLPLS	GP_Gibbs	-0.28	6/6
KMSQSVLYESRNKNSVA	NASTREM	QQYHRLPLS	GP_Gen	-0.14	6/6
YISQSVLYESRNKNSVA	NASTRES	QQYHRLPLS	GP_Gen	-0.13	6/6

Empty control strains, which show no peptide, gave a signal in 4% of pairings with all light chain designs; the median was 2.64 and 95% of these signals were weaker than 1.59. No background was subtracted.
Of ten entries with the parent sequence, four were seen in most replicates (averages 0.34 to 2.37), three in one and three in none, so single entries are noisy.
The range of this assay differs from that of the first round, and the authors advise against merging the two.
The authors averaged sequences with at least three values out of six and counted those with two or fewer as poor binders.